Values of other authors as cited in publication PMC9728581, “Population pharmacokinetics and dosing optimization of unbound teicoplanin in Chinese adult patients” (Frontiers in Pharmacology, 2022).

Conditions: cited from earlier work

teicoplanin
clearance of unbound teicoplanin in the previous study (ref Byrne et al., 2018): 7.29 L/h
volume of distribution of total teicoplanin, previous PopPK study (ref Fu et al., 2021): 83.1 L
half-life of elimination (ref Li and Wang, 2016, Gao et al., 2020): 30 to 180 h
